These are literature values, as cited in patent US5788964A, “Method for sensitization of cancer cells for killer cell mediated lysis” (Orion-Yhtyma Oy, priority 1996, dated 1998).

In the data set the test system is NK and LAK cells. The following applies: 2×10^6 Japan reference units s.c. initially, halved each consecutive day for 6 days; cited from earlier work.

For the substance “IL-2: Cytokines, such as interleukin-2 (IL-2)”, the “activation of NK and LAK cells” value is “significant activation of NK and LAK cells”.
